Source: article PMC3539163 (Steroids, 2011)

Legend:
[1] = test system: transcription of 24-hydroxylase in rat osteosarcoma cells; assay: CYP24A1 transcription; type: cell-based; details: relative to 1 (1,25(OH)2D3)
[2] = test system: human promyeloid leukemia (HL-60) cells; assay: HL-60 differentiation; type: cell-based; details: relative to 1 (1,25(OH)2D3)

SMILES: C=C1/C(=C\C=C2/CCC[C@]3(C)[C@@H]([C@H](C)CCCC(C)(C)O)CC[C@@H]23)C[C@@H](O)C[C@@H]1O [compound 1, 1α,25-dihydroxyvitamin D3, reference compound]
- CYP24A1 transcription Ratio [1]: 1
- HL-60 differentiation Ratio [2]: 1
